Literature values as cited in article PMC3869726, “Inhibition of Human Neutrophil Elastase by Pentacyclic Triterpenes” (PLoS ONE, 2013).

Molecular target: T1, Human neutrophil elastase (HNE) (Homo sapiens, UniProt P08246)
T1 construct: HNE (EC 3.4.21.37) from human leukocytes was purchased; purchased Innovative Research Company (Novi, Michigan); host or cells: human leukocytes (natural source)
T1 sequence (P08246 30-247 limits assumed): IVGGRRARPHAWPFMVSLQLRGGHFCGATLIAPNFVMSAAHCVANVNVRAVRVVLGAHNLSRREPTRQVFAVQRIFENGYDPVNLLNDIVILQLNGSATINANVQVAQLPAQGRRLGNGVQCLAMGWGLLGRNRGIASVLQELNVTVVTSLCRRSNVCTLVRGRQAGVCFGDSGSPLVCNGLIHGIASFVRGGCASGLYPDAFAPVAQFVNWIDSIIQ
Set-up: method as in PMID 22579959
Conditions: positive control, irreversible HNE inhibitor; read-out: IC50, HNE inhibition; cited from earlier work

Which IC50 does the source give for CC(C)(C)C(=O)Oc1ccc(S(=O)(=O)Nc2ccccc2C(=O)NCC(=O)O)cc1 [ONO-5046, Sivelestat sodium hydrate, reference compound] here?
The IC50 was 87 nM.
